# Counter-ions that a name gives are not always drawn.
# Protein sequences, listed by entry. Tags and fused reporters are not part of them.
# UniProt P23975, whole entry: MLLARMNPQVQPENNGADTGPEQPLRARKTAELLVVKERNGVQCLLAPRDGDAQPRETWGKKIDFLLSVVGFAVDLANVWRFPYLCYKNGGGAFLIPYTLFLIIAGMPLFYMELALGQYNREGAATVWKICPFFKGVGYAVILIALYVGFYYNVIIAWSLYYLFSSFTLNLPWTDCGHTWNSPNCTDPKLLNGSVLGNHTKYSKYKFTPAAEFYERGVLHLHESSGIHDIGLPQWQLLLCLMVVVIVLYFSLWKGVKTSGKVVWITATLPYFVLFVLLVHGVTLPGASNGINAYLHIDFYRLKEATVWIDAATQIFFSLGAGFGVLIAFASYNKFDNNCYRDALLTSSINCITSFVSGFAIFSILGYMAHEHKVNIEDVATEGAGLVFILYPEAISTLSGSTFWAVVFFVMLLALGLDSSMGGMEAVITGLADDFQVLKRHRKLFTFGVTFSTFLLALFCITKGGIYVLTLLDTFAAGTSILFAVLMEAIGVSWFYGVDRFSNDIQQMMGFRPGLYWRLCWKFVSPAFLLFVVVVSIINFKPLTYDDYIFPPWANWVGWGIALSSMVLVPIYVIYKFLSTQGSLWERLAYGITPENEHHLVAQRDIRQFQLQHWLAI
# Target: T1, human norepinephrine transporter (hNET) (Homo sapiens, UniProt P23975)
# T1 construct: expressed in transfected cells; host or cells: HEK-293, membranes
# Experiment: hNET receptor binding, [125I]-RTI-55, HEK-293 membranes
# Conditions: Cheng-Prusoff, read-out: NET Ki
# Protocol: Cell pastes of HEK-293 cells transfected with a human norepinephrine transporter cDNA were prepared. The cell pastes were resuspended in 400 to 700 ml of Krebs-HEPES assay buffer (25 mM HEPES, 122 mM NaCl, 3 mM KCl, 1.2 mM MgSO4, 1.3 mM CaCl2, and 11 mM glucose, pH 7.4) with a Polytron homogenizer at setting 7 for 30 seconds. Aliquots of membranes (5 mg/ml protein) were stored in liquid nitrogen until used.
# The binding assay was set up in Beckman deep-well polypropylene plates with a total volume of 250 μl containing: drug (10^−5M to 10^−12M), cell membranes, and […] [^125I]-RTI-55 (Perkin Elmer, NEX-272; specific activity 2200 Ci/mmol). The reaction was incubated by gentle agitation for 90 minutes at room temperature and was terminated by filtration through Whatman GF/C filter plates using a Brandel 96-well plate harvester. Scintillation fluid (100 μl) was added to each well, and bound [^125I]-RTI-55 was determined using a Wallac Trilux Beta Plate Counter. Test compounds were run in duplicate, and specific binding was defined as the difference between binding in the presence and absence of 10 μM desipramine.
# Excel and GraphPad Prism software were used for data calculation and analysis. IC50 values were converted to Ki values using the Cheng-Prusoff equation. The Ki values (nM) for the hNET are reported below in Table 1.
row,Ki,SMILES
1,0.183 µM,"COc1cc(Cl)ccc1O[C@H](c1ccccc1)[C@@H]1CNCCO1 [Example 107, (2S)-2-[(1R)-(4-chloro-2-methoxyphenoxy) (phenyl)methyl]morpholine hydrochloride]"
2,2.02 µM,"COc1cc(Cl)ccc1O[C@@H](c1ccccc1)[C@H]1CNCCO1 [Example 108, (2R)-2-[(1S)-(4-chloro-2-methoxyphenoxy) (phenyl)methyl]morpholine hydrochloride]"
3,0.0979 µM,"COc1cc(Cl)ccc1O[C@H](c1ccccc1)[C@H]1CNCCO1 [Example 109, (2R)-2-[(1R)-(4-chloro-2-methoxyphenoxy) (phenyl)methyl]morpholine succinate]"
4,0.0076 µM,"COc1cc(Cl)ccc1O[C@@H](c1ccccc1)[C@@H]1CNCCO1.Cl [Example 38, (2S)-2-[(1S)-(4-chloro-2-methoxyphenoxy) (phenyl)methyl] morpholine hydrochloride]"
